Activity change, negative = inhibition data for 100 compounds are collected here from PubChem BioAssay AID504652 (National Center for Advancing Translational Sciences (NCATS), 2011).

Sequences of proteins named here, by UniProt entry; tags and fusion partners are left off.
UniProt P21728, whole entry, looked up: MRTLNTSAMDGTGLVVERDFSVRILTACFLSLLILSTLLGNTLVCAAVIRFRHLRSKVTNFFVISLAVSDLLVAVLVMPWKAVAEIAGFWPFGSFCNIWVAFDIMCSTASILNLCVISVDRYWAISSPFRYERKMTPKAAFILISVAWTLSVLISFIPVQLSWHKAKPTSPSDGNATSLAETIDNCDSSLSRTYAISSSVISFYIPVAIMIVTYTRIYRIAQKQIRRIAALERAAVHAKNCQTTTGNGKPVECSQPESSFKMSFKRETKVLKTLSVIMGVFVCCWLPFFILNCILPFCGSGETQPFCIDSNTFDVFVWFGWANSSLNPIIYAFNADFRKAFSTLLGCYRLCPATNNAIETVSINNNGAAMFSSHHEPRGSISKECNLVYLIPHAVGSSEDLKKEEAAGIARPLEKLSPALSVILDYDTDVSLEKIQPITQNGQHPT

Structures are written as SMILES. “And” between values parts separate entries of the source, which are not always exact repeats. Equal values may be shown once. This is a selection; strong and weak results do not stand in their true shares. The source made the active and inactive calls. No stated cut-off is given here; in the data, active means activity change below about -30%; inactive means the rest.
On the % scale 0 is the no-effect control and ±100 the full control effect.

The target of this assay is D(1A) dopamine receptor (Homo sapiens) (UniProt P21728). As to the kind of experiment: Antagonist of Human D 1 Dopamine Receptor: qHTS. To be noted: HEK293 TREx D1 cells, calcium flux, dopamine EC80; at 10 µM; active compounds read low. The source says:
Dopamine receptors (DARs) are involved in the etiology and/or therapy of a number of neuropsychiatric and endocrine disorders. For instance, all receptor-based antiparkinsonian drugs work via stimulating the […] DAR subtype whereas all FDA-approved antipsychotic agents are antagonists of this receptor. […] There are three different types of allosteric modulators that we are seeking, two of which will stimulate or augment receptor signaling, allosteric agonists and potentiators, while the third, allosteric antagonists, will attenuate receptor signaling. The present primary screening assay measures compound antagonism after an EC80 addition of dopamine by tracking calcium flux in a […], inducible Hek293 Trex D1 cell line. NIH Chemical Genomics Center [NCGC] NIH Molecular Libraries Probe Centers Network [MLPCN] MLPCN Grant: NS064831-01 Assay Submitter (PI): David Sibley
Freshly passaged cells are plated in 1536 well black, clear bottom plates at a density of 4000 cells/well in 3 ul of complete media containing 1x tetracycline inducer. After an overnight incubation at 30 C in 5% CO2, cells are loaded with 2 ul of the no wash Calcium Assay Kit (ABD Bioquest) and incubated at room temperature for 30 to 90 minutes. Agonist read: A 10 cycle (1 second/cycle) baseline measurement is taken and then the FDSS online 1536 pintool delivers 23 nl of compound library (as well as dopamine controls) to the plate. The plate is measured for kinetically at 1 cycle/sec for 180 seconds. Following the 180 second read, 1 ul of an EC80 (negative modulation assay) is delivered by an onboard pipette head. Measurements are taken kinetically for an additional 180 seconds.
Background: Quantitative high-throughput screening tests each substance at several concentrations.
`COC(=O)c1cc2c(s1)N=C(c1ccccc1)N(C)P2(=O)N1CCOCC1` (stereo not given): the activity change, negative = inhibition is inactive: -3.9%. With `Cc1ccc(OP(=O)(Nc2ccccn2)Oc2ccc(C)cc2)cc1`, the activity change, negative = inhibition is inactive: -2.94%. The same measure for `CC(=O)NC(SC(=S)N(CC(C)C)CC(C)C)C(Cl)(Cl)Cl` (stereo not given): inactive: -24.3%; for `O=C(OC1CN2CCC1CC2)c1ccccc1` (stereo not given): inactive: -12.9%; for `CCC(=O)N1C2C3N(C(=O)CC)C1C1N(C(=O)CC)C(C(N1C(=O)CC)N3C(=O)CC)N2C(=O)CC`: inactive: -0.647%. The value for `Cc1ccccc1OP(=O)(Nc1ccccn1)Oc1ccccc1C` was inactive: -18.4%; that for `CN(C)C(=O)Oc1noc2ccccc12` was inactive: -2.45%. As for `O=c1c2cc([N+](=O)[O-])ccc2[nH]c2c([N+](=O)[O-])cc([N+](=O)[O-])cc12`, the activity change, negative = inhibition was active: -30.1%. The value for `CCNC(=S)/N=C(\N)N[N+](=O)[O-]` was inactive: -4.3%. Regarding `O=C(NC1CCS(=O)(=O)C1)NP(=S)(Oc1ccccc1)Oc1ccccc1` (stereo not given), the activity change, negative = inhibition is inactive: -1.36%. The value for `c1ccc(-c2nn[nH]n2)c(-c2nn[nH]n2)c1` was inactive: -9.99%.

With `CCOC(=O)NC(Sc1ccccc1)C(Cl)(Cl)Cl` (stereo not given), the activity change, negative = inhibition is inactive: -4.97%.

For `Cc1ccc(NP(=O)(Oc2cccc(C)c2)Oc2cccc(C)c2)nc1`, the activity change, negative = inhibition is inactive: -11%. The same measure for `CC(=O)c1ccc(N2CC2c2ccncc2)cc1` (stereo not given): inactive: -7.33%; for `Cc1ccccc1CN(C)C(=O)COC(=O)C(O)(c1ccccc1)c1ccccc1`: inactive: 9.81%. The value for `C[C@@H]1C=CCP(=O)(Oc2ccccc2)O1` (stereo not given in full) was inactive: 11.6%.

Turning to `C[C@H]1OP(=O)(Oc2ccccc2)C[C@@H]2O[C@@H]21` (stereo not given in full), the activity change, negative = inhibition is inactive: 8.37%. As for `CC(=O)Nc1ccc([As](=O)(O)O)c(O)c1`, the activity change, negative = inhibition is inactive: 2.27%. Turning to `CC(=O)Nc1ccc(Oc2c([N+](=O)[O-])cc([N+](=O)[O-])cc2[N+](=O)[O-])cc1`, the activity change, negative = inhibition is inactive: 3.11%. On to `O=P1(Nc2nc3ccc(Cl)cc3s2)COc2ccccc2O1` (stereo not given), for which the activity change, negative = inhibition was inactive: -12.8%. The value for `CCOc1ccc(C2=NCC(CBr)S2)cc1` (stereo not given) was inactive: 6.6%; that for `CC(C)(C)C(=O)NC(Sc1ccccc1)C(Cl)(Cl)Cl` (stereo not given) was inactive: 0.929%; that for `CC(C)C(=O)NC(Sc1ccccc1)C(Cl)(Cl)Cl` (stereo not given) was inactive: -1.25%. For the compound `O=P(Nc1nccs1)(c1ccccc1)c1ccccc1`, the activity change, negative = inhibition is inactive: 1.1%. On to `c1nnnn1CCn1cnnn1`, for which the activity change, negative = inhibition is inactive: -0.568%. Turning to `O=[N+]([O-])c1ccc(O)c(/C=N/Nc2ccc([N+](=O)[O-])cc2[N+](=O)[O-])c1`, the activity change, negative = inhibition was inactive: -15.8%. As to `O=[N+]([O-])c1ncn(CCn2cnc([N+](=O)[O-])n2)n1`, the activity change, negative = inhibition is inactive: 4.09%. The same measure for `CC(=O)NC(SC(=S)N(C)C)C(Cl)(Cl)Cl` (stereo not given): active: -57.4%; for `O=[As](O)(c1ccccc1)c1ccc(O)cc1`: inactive: -17%; for `Nc1ccc([As](=O)(O)c2ccc([N+](=O)[O-])cc2)cc1`: inactive: 8.59%. Turning to `C(Cc1nn[nH]n1)Cc1nn[nH]n1`, the activity change, negative = inhibition was inactive: 14.8%.

With `O=C(OC1CN2CCC1CC2)c1cccc(Cl)c1` (stereo not given), the activity change, negative = inhibition is inactive: -10.6%.

Take `O=P(Nc1ccccn1)(c1ccc(Br)cc1)c1ccc(Br)cc1`: the activity change, negative = inhibition was inactive: 0.306%. The value for `CN(C)C1(CNC(=O)c2ccc(Cl)c(S(N)(=O)=O)c2)CCCCC1` was inactive: -13.8%; that for `O=P(Nc1nc2ccccc2s1)(c1ccccc1)c1ccccc1` was inactive: -10.1%. The same measure for `C[C@H]1OP(=O)(Oc2ccccc2)[C@H](O)[C@H](O)[C@H]1N=[N+]=[N-]` (stereo not given in full): inactive: 4.18%; for `CC(C)(C)C(=O)NC(Sc1ccncn1)C(Cl)(Cl)Cl` (stereo not given): inactive: 16.1%; for `O=[N+]([O-])c1ncn(CCn2ncnc2[N+](=O)[O-])n1`: inactive: -6.12%.

In the case of `O=[N+]([O-])c1cccc(NC2=NCC(CBr)S2)c1` (stereo not given), the activity change, negative = inhibition is inactive: 5.68%. The value for `O=C(O)CNc1ccc([As](=O)(O)O)cc1` was inactive: 5.67%. As to `O=C(Nc1cc([As](=O)(O)O)ccc1O)c1ccccc1`, the activity change, negative = inhibition was inactive: 8.58%.

For the compound `Nc1ccc([As](=O)(O)c2ccc(N)cc2)cc1`, the activity change, negative = inhibition is inactive: -9.19%. Consider `C[N+]1=C2C=CC=CC=C2SC12C([N+](=O)[O-])=CC([N+](=O)[O-])=C[C-]2[N+](=O)[O-]` (stereo not given), for which the activity change, negative = inhibition is inactive: -4.54%. In the case of `CCN(/C(=N/P(=O)(N1CCOCC1)N1CCOCC1)N1CCOCC1)c1ccc(OC)cc1`, the activity change, negative = inhibition was inactive: 6.92%.

Take `CC(C)=N/N=C(\N)N[N+](=O)[O-]`: the activity change, negative = inhibition is inactive: -1.5%.

For `CN(C)C(=O)OCCc1n(C)cc[n+]1C`, the activity change, negative = inhibition was inactive: 9.32%.

Regarding `CC1CCN(C(=O)Oc2c(Cl)cc(Cl)c3cccnc23)CC1`, the activity change, negative = inhibition was inactive: -9.45%. The same measure for `COc1ccc(C2=NCC(CBr)S2)cc1` (stereo not given): inactive: 4.38%. The value for `O=[N+]([O-])c1cccc2n[nH]nc12` was inactive: 0.269%; that for `CC(=O)N1C2C3N(C(C)=O)C1C1N(C(C)=O)C(C(N1C(C)=O)N3C(C)=O)N2C(C)=O` was inactive: -5.72%. The value for `Cc1ccc(NP(=O)(Oc2ccccc2)Oc2ccccc2)nc1` was inactive: -16%; that for `CCc1nc2c(n1)c1c(non1O)c1c2no[n+]1[O-]` was inactive: 3.87%; that for `O=[N+]([O-])c1cc([N+](=O)[O-])c(CCNc2ccccc2)c([N+](=O)[O-])c1` was inactive: 10.9%. Take `Nc1cc(N)c2nonc2c1[N+](=O)[O-]`: the activity change, negative = inhibition is inactive: -8.45%.

As for `Oc1ccccc1CNc1ccccn1`, the activity change, negative = inhibition is inactive: -9.78%. The same measure for `Cc1c2non([O-])c-2c(C)[n+](=O)[n+]1[O-]`: inactive: 9.72%; for `O=C(NC(Sc1ccncn1)C(Cl)(Cl)Cl)c1ccccc1` (stereo not given): inactive: 2.44%. The value for `NC(=O)c1cc([N+](=O)[O-])cc([N+](=O)[O-])c1N` was inactive: 6.21%; that for `CN(C(=O)Cc1ccc(Cl)c(Cl)c1)[C@H]1CCCC[C@H]1N1CCCC1` was inactive: -18.8%; that for `Cc1ccc(N/C(=N/P(=O)(N2CCOCC2)N2CCOCC2)N2CCOCC2)cc1` was inactive: 11%. On to `COc1ccccc1OP(=O)(Nc1ccc(C)cn1)Oc1ccccc1OC`, for which the activity change, negative = inhibition was inactive: 9.11%.

`Cc1ccc(OP(=O)(Nc2nccs2)Oc2ccc(C)cc2)cc1`: the activity change, negative = inhibition was inactive: 1.98%. With `Clc1ccc(Cl)c(NC2=NCC(CBr)S2)c1` (stereo not given), the activity change, negative = inhibition was inactive: 6.18%. The same measure for `CN1CCCC(OC(=O)C(c2ccccc2)c2ccccc2)C1` (stereo not given): inactive: 5.74%; for `O=[N+]([O-])c1cc([N+](=O)[O-])c(CCN2CCOCC2)c([N+](=O)[O-])c1`: inactive: -12.8%; for `CCN(N=Nc1nonc1N)c1nonc1N`: inactive: -4.37%. The value for `Nc1cccc2ccc([As](=O)(O)O)cc12` was inactive: 7.55%; that for `O=C(O)c1ccccc1[As](=O)(O)O` was inactive: 7.27%; that for `CC(=O)Nc1ccc([As](=O)(O)O)cc1` was inactive: -3.06%. The value for `O=P(Nc1nc2ccc(Cl)cc2s1)(c1ccccc1)c1ccccc1` was active: -48.3%; that for `CCOP(=O)(Nc1ccccc1)OCC` was inactive: -7.71% and inactive: 0.862%; that for `Cc1cc(SC(NC(=O)c2ccc(F)cc2)C(Cl)(Cl)Cl)ncn1` (stereo not given) was inactive: 4.99%.

Consider `Cc1ccc(NP(=O)(Oc2ccccc2F)Oc2ccccc2F)nc1`, for which the activity change, negative = inhibition is inactive: 5.21%. Regarding `CC(C)c1ccc(OP(=O)(Nc2ccccn2)Oc2ccccc2F)cc1` (stereo not given), the activity change, negative = inhibition was inactive: 2.1%.

As to `ClCCSc1nnc(-c2cccnc2)o1`, the activity change, negative = inhibition was inactive: 2.97%. Turning to `CCN(CC)C(=S)SC(NC=O)C(Cl)(Cl)Cl` (stereo not given), the activity change, negative = inhibition is inactive: 3.73%. The value for `CC(C)NC(=O)NP(=O)(Oc1ccccc1)Oc1ccccc1` was inactive: 18.1%; that for `O=[N+]([O-])c1cc([N+](=O)[O-])c(-c2ccn[nH]2)s1` was inactive: -12.8%. Take `C[As](=O)(O)c1cccc(C(=O)O)c1`: the activity change, negative = inhibition was inactive: 3.26%. The same measure for `O=[As](O)(c1ccc(O)cc1)c1ccccc1O`: inactive: 9.8%; for `COc1cc(C(=O)NCC2(N3CCOCC3)CCCCC2)ccc1OCC(C)C`: inactive: 0.207%. The same measure for `Cc1ccc2nc3c(c(C)c2c1)CC(C(Cl)Cl)S3` (stereo not given): inactive: -2.36%; for `Cc1ccc(OP(=O)(Nc2ccc([N+](=O)[O-])cn2)Oc2ccc(C)cc2)cc1`: inactive: -16.8%; for `COc1ccc(N/C(=N/P(=O)(N2CCOCC2)N2CCOCC2)N2CCOCC2)cc1`: inactive: 2.81%. The same measure for `O=C(OC1CN2CCC1CC2)C12CC3CC(CC(C3)C1)C2` (stereo not given): inactive: -2.33%; for `Cc1cc(=O)[nH]c(N[N+](=O)[O-])n1`: inactive: 3.53%; for `Cc1c2c(nc3ccccc13)SC(C(Cl)Cl)C2` (stereo not given): inactive: 0.983%. `COc1ccc2nc(NP(=O)(c3ccccc3)c3ccccc3)sc2c1`: the activity change, negative = inhibition is inactive: -16.1%.

For the compound `COc1cc(I)ccc1[As](=O)(O)O`, the activity change, negative = inhibition was inactive: 2.5%.

For `CCOC(=O)c1ccc(NC(=O)C(C)(CCl)SC)cc1` (stereo not given), the activity change, negative = inhibition was inactive: -3.34%. In the case of `O=C(OC1CN2CCC1CC2)c1cccc([N+](=O)[O-])c1` (stereo not given), the activity change, negative = inhibition was inactive: 6.93%.

On to `CCOP(=O)(Nc1cccc2cccnc12)OCC`, for which the activity change, negative = inhibition is inactive: -1.58%.

Take `CCC(C)N(CC(C)C)C(=S)SC(NC(C)=O)C(Cl)(Cl)Cl` (stereo not given): the activity change, negative = inhibition is inactive: 24.2%. Turning to `COP1(=S)c2c(C)nn(CCC#N)c2N=C(c2ccc(F)cc2)N1C` (stereo not given), the activity change, negative = inhibition is inactive: -5.91%. On to `O=C(COc1ccccc1)OC1CN2CCC1CC2` (stereo not given), for which the activity change, negative = inhibition was inactive: -6.94%. The same measure for `O=C(Nc1ccncc1[N+](=O)[O-])c1ccc([N+](=O)[O-])cc1[N+](=O)[O-]`: inactive: -4.8%; for `CCOC(=O)Nc1cccc([As](=O)(O)O)c1`: inactive: -3.92%.

Consider `O=[N+]([O-])c1ccc(Nc2ccc(Oc3ccc([N+](=O)[O-])cc3[N+](=O)[O-])cc2)c([N+](=O)[O-])c1`, for which the activity change, negative = inhibition is inactive: 1.39%.

In the case of `O=P(Nc1ccccn1)(c1cccc2ccccc12)c1cccc2ccccc12`, the activity change, negative = inhibition is inactive: 1.08%. `Cc1cc(SC(NC=O)C(Cl)(Cl)Cl)ncn1` (stereo not given): the activity change, negative = inhibition is inactive: 4.99%.
